The target in this experiment is Epidermal growth factor receptor (Homo sapiens, UniProt P00533). The experiment is described as follows: Enzyme Assay: BT474 Cell Line: 1. 5×10^3 cells per well in 100 μl of medium were seeded in 96-well plate, here the medium contained 5% FBS2. 24 hours later, 100 μl fresh medium was added with various concentrations of compounds into each well, while the medium here was free of FBS.3. After the cells were treated with compounds for 72 hours, 20 μl MTT (5 mg/ml) was added into each well, and then the assay plate was incubated at 37° C. for 4 more hours.4. The assay plate was centrifuged at 800 g for 10 min. The medium was aspirated, 150 μl DMSO was added into each well. The plate was gently shaken for 10 min.5. The absorbance at 570 nm was measured on the plate reader.6. IR %=(WC−WT)/WC×100%.

The chains behind the UniProt entries cited, without tags or fusion partners.
UniProt P00533, whole entry: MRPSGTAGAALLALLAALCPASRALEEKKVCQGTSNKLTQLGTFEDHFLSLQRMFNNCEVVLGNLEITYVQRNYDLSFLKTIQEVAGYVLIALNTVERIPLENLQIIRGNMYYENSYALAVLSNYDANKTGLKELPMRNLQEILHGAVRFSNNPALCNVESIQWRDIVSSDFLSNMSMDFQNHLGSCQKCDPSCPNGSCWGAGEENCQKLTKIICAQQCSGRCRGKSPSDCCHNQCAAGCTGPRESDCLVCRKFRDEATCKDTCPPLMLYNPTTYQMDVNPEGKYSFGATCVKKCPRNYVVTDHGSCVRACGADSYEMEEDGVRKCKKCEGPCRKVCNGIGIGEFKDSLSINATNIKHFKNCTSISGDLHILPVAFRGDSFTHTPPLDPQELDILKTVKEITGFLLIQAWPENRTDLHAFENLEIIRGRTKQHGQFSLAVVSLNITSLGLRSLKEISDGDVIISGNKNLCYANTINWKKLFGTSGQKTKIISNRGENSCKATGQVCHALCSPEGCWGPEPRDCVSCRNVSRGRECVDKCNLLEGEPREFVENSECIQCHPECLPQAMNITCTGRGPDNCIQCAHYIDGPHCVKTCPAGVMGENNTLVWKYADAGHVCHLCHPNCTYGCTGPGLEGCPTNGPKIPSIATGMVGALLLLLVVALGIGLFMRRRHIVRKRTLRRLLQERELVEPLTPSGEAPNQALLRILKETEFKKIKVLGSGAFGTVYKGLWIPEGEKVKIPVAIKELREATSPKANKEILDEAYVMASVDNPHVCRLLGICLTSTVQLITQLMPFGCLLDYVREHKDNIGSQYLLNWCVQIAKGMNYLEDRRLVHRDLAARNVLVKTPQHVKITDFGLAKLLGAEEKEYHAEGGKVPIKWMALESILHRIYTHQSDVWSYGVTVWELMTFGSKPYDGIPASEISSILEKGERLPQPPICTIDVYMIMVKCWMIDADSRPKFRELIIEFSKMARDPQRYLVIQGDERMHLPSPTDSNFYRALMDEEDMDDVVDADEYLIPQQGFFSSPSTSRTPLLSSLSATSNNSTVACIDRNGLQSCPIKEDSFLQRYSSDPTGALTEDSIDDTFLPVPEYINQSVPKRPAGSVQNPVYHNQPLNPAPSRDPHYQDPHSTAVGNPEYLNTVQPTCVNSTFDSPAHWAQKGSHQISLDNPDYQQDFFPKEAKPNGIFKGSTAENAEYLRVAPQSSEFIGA

Consider `C#Cc1cccc(Nc2ncnc3cc(O[C@H]4CCOC4)c(NC(=O)/C=C/CN(CC)CC)cc23)c1`, for which the IC50 is under 100 nM.

Source of the values: ChEMBL document CHEMBL3886202, “Substituted aminoquinazolines useful as kinases inhibitors” (2016).
